This experiment has as its system mice expressing RASSL (modified k-opioid receptor) in T1R2-cells. As to conditions: induced, un-induced and T1R2-rtTA-only control groups.

For `OC[C@H]1O[C@@](CO)(O[C@H]2O[C@H](CO)[C@@H](O)[C@H](O)[C@H]2O)[C@@H](O)[C@@H]1O` [sucrose], the behavioral response result was “normal responses”.

The values are drawn from patent publication US7459277B2, “Mammalian T1R3 sweet taste receptors” (The Regents of the University of California, priority 2003, dated 2008).
